The text below walks through data of patent EP1495132B1, “SYSTEMIC MARKER FOR MONITORING ANTI-INFLAMMATORY AND ANTIOXIDANT ACTIONS OF THERAPEUTIC AGENTS” (priority 2002, dated 2003).

The assay has as its system MPO and multiple distinct oxidation products formed by MPO. Conditions: 16 weeks of refocoxib 25 mg PO QD, rheumatoid arthritis, n=10.

Take `CS(=O)(=O)c1ccc(C2=C(c3ccccc3)C(=O)OC2)cc1` [refocoxib]: the clinical outcome is given as “clinical improvement in each subject”. Where the note is “plasma protein-bound”, the Nitrotyrosine is on record as 11.2 µmol/mol. Under “plasma”, the “9-H(P)ETE” value stood at 0.20 mmol/mol, the Chlorotyrosine came out at 15.8 µmol/mol, the Dityrosine was found to be 35.4 µmol/mol and the F2Isoprostane turned out to be 0.76 mmol/mol. This compound also came in with an MPO (plasma) of 10.8 ng/mL.
